Source: patent publication US20130203659A1 (priority 2006, published 2013)

Sequences of proteins named here, by UniProt entry; tags and fusion partners are left off. Residues count along the entry.
UniProt P43220, 24-463: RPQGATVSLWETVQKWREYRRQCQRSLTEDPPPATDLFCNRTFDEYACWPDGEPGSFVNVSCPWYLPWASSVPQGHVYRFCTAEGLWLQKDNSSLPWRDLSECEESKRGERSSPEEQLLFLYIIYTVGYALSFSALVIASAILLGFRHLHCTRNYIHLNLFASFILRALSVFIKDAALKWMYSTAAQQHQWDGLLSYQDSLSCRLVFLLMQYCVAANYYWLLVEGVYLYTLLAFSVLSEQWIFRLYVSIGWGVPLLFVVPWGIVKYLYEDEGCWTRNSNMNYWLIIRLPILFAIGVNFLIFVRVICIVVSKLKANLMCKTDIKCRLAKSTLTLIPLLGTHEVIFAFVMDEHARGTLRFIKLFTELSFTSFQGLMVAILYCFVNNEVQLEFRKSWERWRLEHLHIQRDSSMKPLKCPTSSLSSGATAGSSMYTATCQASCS

Target: T1, human GLP-1 receptor (Homo sapiens, UniProt P43220)
T1 construct: expressed in transfected cells; host or cells: CHOK1 cells with a cAMP-regulated luciferase reporter construct
Experiment: GLP-1R reporter assay (cAMP-regulated luciferase, CHOK1 cells), human receptor
Format: cell-based
Description: A. GLP-1R Reporter Assay:
Increased cAMP levels were measured through enhanced expression of a luciferase reporter gene. […] The evening prior to assay, the cells were washed, the medium replaced with serum-free medium containing 0.5% protease-free bovine serum albumin (BSA), and then cultured overnight. […] Cell lysates were assayed for luciferase activity using the Luciferase Assay System (Promega Corporation, Madison, Wis.). Luciferase activity was measured using a Luminoskan Ascent (Thermo Electron Corporation, Marietta, Ohio). Nonlinear regression analyses of resultant compound concentration curves were performed using GraphPad Prism (GraphPad Software, Inc., San Diego, Calif.).

Question: Which EC50 does the source give for `CC[C@H](C)[C@H](NC(=O)[C@H](Cc1ccccc1)NC(=O)[C@H](CCC(=O)O)NC(=O)[C@H](CCCCN)NC(=O)[C@@H]1CCCCNC(=O)CC[C@H](NC(=O)[C@H](CC(C)C)NC(=O)[C@H](Cc2ccc(O)cc2)NC(=O)[C@H](CO)NC(=O)[C@H](CO)NC(=O)[C@@H](NC(=O)[C@H](CC(=O)O)NC(=O)[C@H](CO)NC(=O)[C@@H](NC(=O)[C@H](Cc2ccccc2)NC(=O)[C@@H](NC(=O)CNC(=O)[C@H](CCC(=O)O)NC(=O)CNC(=O)[C@@H](N)Cc2c[nH]cn2)[C@@H](C)O)[C@@H](C)O)C(C)C)C(=O)NCC(=O)N[C@@H](CCC(N)=O)C(=O)N[C@@H](C)C(=O)N1)C(=O)N[C@@H](C)C(=O)N[C@@H](Cc1c[nH]c2ccccc12)C(=O)N[C@@H](CC(C)C)C(=O)N[C@H](C(=O)N[C@@H](CCCCN)C(=O)NCC(=O)N[C@@H](CCCNC(=N)N)C(=O)NCC(N)=O)C(C)C` [[Gly8]GLP1(7-37) cyc[Glu15-Lys19], HGEGTFTSDVSSYLEGQAKKEFIAWLVKGRG AMIDE] here?
Answer: 0.15 nM

Question: `CC[C@H](C)[C@H](NC(=O)[C@@H]1CCCCNC(=O)CC[C@H](NC(=O)[C@H](CCC(N)=O)NC(=O)CNC(=O)[C@H](CCC(=O)O)NC(=O)[C@H](CC(C)C)NC(=O)[C@H](Cc2ccc(O)cc2)NC(=O)[C@H](CO)NC(=O)[C@H](CO)NC(=O)[C@@H](NC(=O)[C@H](CC(=O)O)NC(=O)[C@H](CO)NC(=O)[C@@H](NC(=O)[C@H](Cc2ccccc2)NC(=O)[C@@H](NC(=O)CNC(=O)[C@H](CCC(=O)O)NC(=O)CNC(=O)[C@@H](N)Cc2c[nH]cn2)[C@@H](C)O)[C@@H](C)O)C(C)C)C(=O)N[C@@H](C)C(=O)N[C@@H](CCCCN)C(=O)N[C@@H](CCC(=O)O)C(=O)N1)C(=O)N[C@@H](C)C(=O)N[C@@H](Cc1c[nH]c2ccccc12)C(=O)N[C@@H](CC(C)C)C(=O)N[C@H](C(=O)N[C@@H](CCCCN)C(=O)NCC(=O)N[C@@H](CCCNC(=N)N)C(=O)NCC(N)=O)C(C)C` [[Gly8]GLP1(7-37) cyclo[Glu18-Lys22], HGEGTFTSDVSSYLEGQEAKEKIAWLVKGRG AMIDE] was tested. Which EC50 did it give?
Answer: 0.8 nM
